By UniProt entry, the sequences of proteins in these tests, tags left out. Where a name states a change or a piece, a line headed by the entry shows the natural chain unless it says otherwise.
UniProt P28845: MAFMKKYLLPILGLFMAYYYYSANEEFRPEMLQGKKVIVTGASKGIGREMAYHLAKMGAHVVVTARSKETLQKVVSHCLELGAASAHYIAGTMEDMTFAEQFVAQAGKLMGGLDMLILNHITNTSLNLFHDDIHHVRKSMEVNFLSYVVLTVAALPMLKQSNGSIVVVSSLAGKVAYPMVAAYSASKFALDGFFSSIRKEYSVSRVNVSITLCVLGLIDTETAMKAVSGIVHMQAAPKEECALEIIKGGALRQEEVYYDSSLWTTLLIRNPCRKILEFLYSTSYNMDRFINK

In article PMC8395285, “Novel 2-(Adamantan-1-ylamino)Thiazol-4(5H)-One Derivatives and Their Inhibitory Activity towards 11β-HSD1—Synthesis, Molecular Docking and In Vitro Studies” (International Journal of Molecular Sciences, 2021):

Molecular target: T1, 11β-HSD1 (Homo sapiens, UniProt P28845)
T1 construct: Human liver microsomes were used as a source of 11β-HSD1 enzyme; tissue XenoTech Lot No.1410013; host or cells: pooled human liver microsomes, mixed gender
Assay: Inhibition of 11β-HSD1 (cortisone to cortisol, human liver microsomes, cortisol ELISA)
Type: biochemical
Details: concentrations 0.625-10.0 µM, read from the chart
Experimental: 11β-HSD1 assays: carbenoxolone (sodium salt) (Cayman Chemical Company, Ann Arbor, MI, USA), cortisone, NADPH tetrasodium salt, phosphate buffer powder, (Sigma-Aldrich, Poznań, Poland), Pooled human liver microsomes, mixed gender, 1 mL, 20 mg/mL Lot No.1410013-XenoTech, Cortisol Elisa Ref DkO001 Lot No. 4715A (DiaMetra, Spello, Italy), ELISA Kit for 11-Beta-Hydroxysteroid Dehydrogenase Type 1 Lot No.L160706125-(Cloud-Clone Corp., Wuhan, China), PBS Lot No. H161008 (Pan Biotech, Aidenbach, Germany).
. Standard 96-well microplates were filled with reagent mixture: cortisone/NADPH (20 μL, to achieve the final concentration of 200 nM/2 μM), microsomes (10 μL, 1.13 μg of 11β-HSD1 in 1 mL) solution in PBS (final amount of 2.5 μg), phosphate buffer (60 μL, pH 7.4), and 10 µL of compounds 3a–3j dissolved in the mixture containing 1% of DMSO and 99% of water. The resulting solution with a final volume of 100 µL was incubated for 2.5 h at 37 °C. To stop the reaction, 10 µL of a 100 µM solution of 18β-glycyrrhetinic acid in PBS was added. The level of cortisol obtained in the reaction was measured by commercially available ELISA kit.
Calibration curves to determine IC50 values for compounds 3a–3j were obtained using their solutions at concentrations of 0.625, 1.25, 2.5, 5.0, and 10.0 µM and using standard procedure and conditions as described in the previous sections. […]

SMILES: CC1(C)[C@@H](OC(=O)CCC(=O)O)CC[C@]2(C)[C@H]3C(=O)C=C4[C@@H]5C[C@@](C)(C(=O)O)CC[C@]5(C)CC[C@@]4(C)[C@]3(C)CC[C@@H]12 [carbenoxolone, reference compound]
- IC50: 160 ± 150 nM
